Where “and” joins values, the source holds several entries; their conditions need not be identical. Identical values can stand only once.

In the assay the test system is NZB/W F1 female mice with severe nephritis.

With `C[C@@H]1C[C@H]2[C@@H]3CCC4=CC(=O)C=C[C@]4(C)[C@@]3(F)[C@@H](O)C[C@]2(C)[C@@]1(O)C(=O)COP(=O)([O-])[O-].[Na+].[Na+]` [Dex, dexamethasone 21-phosphate disodium], for the setting “8-week time point”, the “mice in which albuminuria was detected” value was found to be 82%. The survival (after 2-month treatment) was 80% and ~82%. For the same compound, the “mice in which albuminuria intensified” value (over the experimental time course) was found to be 36%. Further, for the setting “prior to the end of the experiment”, the “mice euthanized due to severe nephritis” value is on record as roughly 18%.

The values above are taken from patent US12011450B2, “Polyethylene glycol-conjugated glucocorticoid prodrugs and compositions and methods thereof” (Board of Regents of the University of Nebraska, priority 2015, dated 2024).
